As usually defined, the EC50 (read off the curve) is the concentration giving half of the maximal effect. A word on the Kd: it is a measure of binding affinity in units of concentration. A high value points to weaker binding.

Experiment [1] deals with CI-MPR receptor. As to the kind of experiment: CI-MPR plate binding assay (96-well plates coated with CI-MPR), bound GAA activity.
Experiment [2] concerns the target CI-MPR receptor. As to the kind of experiment: affinity chromatography on immobilized CI-MPR, elution with a gradient of M6P, GAA activity (F460) of the fractions.
In experiment [3] the target is CI-MPR receptor. As to the kind of experiment: CI-MPR plate binding assay, conditioned media of HEK293T cells, bound GAA activity, fit of the curves of FIG. 42.
Experiment [4] has as its target CI-MPR receptor. As to the kind of experiment: CI-MPR plate binding assay, conditioned media of HEK293T cells, bound GAA activity, fit of the curves of FIG. 44.
The target in experiment [5] is CI-MPR receptor. As to the kind of experiment: CI-MPR plate binding assay, conditioned media of HEK293T cells, bound GAA activity, fit of the curves of FIG. 40.

As to “alglucosidase alfa (from UniProt P10253) (enzyme)”, in experiment [1], the EC50 (read off the curve) turned out to be 4 nM. Moreover, in experiment [2], the fraction of GAA activity in the flow-through (not bound) was 73%.

In experiment [3], vIGF2-22-GAA (enzyme) yielded a Bmax of 46 nmol/mL/h and a dissociation constant (Kd) of 8.7 nM. Further, in experiment [4], the Bmax was 35 nmol/mL/h and the Kd was determined as 16 nM.

In experiment [4], vIGF2-34-GAA (enzyme) had a Bmax of 54 nmol/mL/h and a Kd of 51 nM.

As to vIGF2-27-GAA (enzyme), in experiment [3], the Bmax was 24 nmol/mL/h and the Kd was 39 nM.

vIGF2-31-GAA (enzyme): in experiment [4], the Bmax came out at 14 nmol/mL/h and the Kd was 20 nM.

In experiment [5], vIGF2-10-GAA (enzyme) showed a Bmax of 21 nmol/mL/h and an equilibrium dissociation constant (Kd) of 13 nM.

In experiment [3], vIGF2-29-GAA (enzyme) showed a Bmax of 69 nmol/mL/h and an equilibrium dissociation constant (Kd) of 70 nM.

For the substance vIGF2-28-GAA (enzyme), in experiment [3], the Bmax amounted to 66 nmol/mL/h and the Kd came out at 62 nM.

In experiment [4], vIGF2-32-GAA (enzyme) displayed a Bmax of 18 nmol/mL/h and an equilibrium dissociation constant (Kd) of 15 nM.

As to vIGF2-23-GAA (enzyme), in experiment [3], the Bmax turned out to be 20 nmol/mL/h and the dissociation constant Kd was determined as 19 nM.

Consider vIGF2-18-GAA (enzyme), for which, in experiment [5], the Bmax came to 82 nmol/mL/h and the Kd came to 19 nM.

In experiment [4], vIGF2-33-GAA (enzyme) returned a Bmax of 87 nmol/mL/h and a dissociation constant Kd of 74 nM.

In experiment [5], vIGF2-16-GAA (enzyme) gave a Bmax of 14 nmol/mL/h and a dissociation constant Kd of 45 nM.

As to vIGF2-21-GAA (enzyme), in experiment [3], the Bmax worked out at 67 nmol/mL/h and the Kd came to 11 nM.

In experiment [3], “vIGF2-24 (vIGF2 Δ31-38GGGG V43L) vIGF2-GAA construct (from UniProt P10253 61-952) (enzyme)” showed a Bmax of 50 nmol/mL/h and a Kd of 1.8 nM.

For the substance vIGF2-13-GAA (enzyme), in experiment [5], the Bmax came to 16 nmol/mL/h and the Kd amounted to 25 nM.

The record behind these values is patent publication US20240091321A1.
